How the values were obtained:
[1] = tested on: SNL-induced mechanical hyperalgesia in rats; assay: spinal nerve ligation (SNL) induced mechanical hyperalgesia model, paw pressure test (PWT)
hTAAR1 = hTAAR1 (Homo sapiens (Human), UniProt Q96RJ0); assay: in vitro cAMP assay (agonist activity assay), HitHunter cAMP XS+, cAMP Hunter cell lines; assay type: cell-based; settings: maximal cAMP level, cAMP Hunter cells, n in brackets

Amino acid sequences for entries named in this document (tags omitted). A change or cut given only in a name is not applied to a line headed by its entry.
UniProt Q96RJ0: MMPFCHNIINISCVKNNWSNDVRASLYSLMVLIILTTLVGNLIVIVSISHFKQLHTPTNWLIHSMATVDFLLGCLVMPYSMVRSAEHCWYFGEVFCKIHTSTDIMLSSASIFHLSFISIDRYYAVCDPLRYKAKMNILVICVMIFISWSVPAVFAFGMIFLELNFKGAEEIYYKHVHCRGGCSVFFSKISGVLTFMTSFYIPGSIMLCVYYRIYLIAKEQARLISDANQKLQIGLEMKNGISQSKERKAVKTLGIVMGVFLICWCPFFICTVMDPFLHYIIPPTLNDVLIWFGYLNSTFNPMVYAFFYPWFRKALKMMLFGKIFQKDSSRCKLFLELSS

For Clc1ccc([C@H]2COC(NC3=N[C@@H](c4ccc(Cl)c(Cl)c4)CO3)=N2)cc1Cl [Compound (8), (4S)-4-(3,4-dichlorophenyl)-N-[(4S)-4-(3,4-dichlorophenyl)-4,5-dihydro-1,3-oxazol-2-yl]-4,5-dihydro-1,3-oxazol-2-amine], which “max reversal of SNL-induced mechanical hyperalgesia” value ([1]; male Sprague-Dawley rats, 4 weeks post-SNL surgery, dosed orally at 5 mg/kg 1 hour before testing, in 25% HPBCD) is on record?
Its value is 85%.

And the “effect on SNL-induced mechanical hyperalgesia” value ([1]; rats, dosed orally at 5 mg/kg one hour before testing)?
Its value is “reduced SNL-induced mechanical hyperalgesia”.

What about the “hTAAR1 Emax (mean ± SEM(n))” value (hTAAR1) of the same molecule?
Its value is 16.7 ± 7.2% (3).

— US10858326B2, “Oxazoline pseudodimers, pharmaceutical compositions and the use thereof” (PURDUE PHARMA L.P., priority 2016, dated 2020)
